The source of these data is ChEMBL document CHEMBL5113513, “Selective Inhibitors of Medium-Size S1' Pocket Matrix Metalloproteinases: A Stepping Stone of Future Drug Discovery” (J Med Chem, 2022).

Sequences of proteins named here, by UniProt entry; tags and fusion partners are left off. A change or cut given only in a name is not applied to a line headed by its entry.
UniProt P14780: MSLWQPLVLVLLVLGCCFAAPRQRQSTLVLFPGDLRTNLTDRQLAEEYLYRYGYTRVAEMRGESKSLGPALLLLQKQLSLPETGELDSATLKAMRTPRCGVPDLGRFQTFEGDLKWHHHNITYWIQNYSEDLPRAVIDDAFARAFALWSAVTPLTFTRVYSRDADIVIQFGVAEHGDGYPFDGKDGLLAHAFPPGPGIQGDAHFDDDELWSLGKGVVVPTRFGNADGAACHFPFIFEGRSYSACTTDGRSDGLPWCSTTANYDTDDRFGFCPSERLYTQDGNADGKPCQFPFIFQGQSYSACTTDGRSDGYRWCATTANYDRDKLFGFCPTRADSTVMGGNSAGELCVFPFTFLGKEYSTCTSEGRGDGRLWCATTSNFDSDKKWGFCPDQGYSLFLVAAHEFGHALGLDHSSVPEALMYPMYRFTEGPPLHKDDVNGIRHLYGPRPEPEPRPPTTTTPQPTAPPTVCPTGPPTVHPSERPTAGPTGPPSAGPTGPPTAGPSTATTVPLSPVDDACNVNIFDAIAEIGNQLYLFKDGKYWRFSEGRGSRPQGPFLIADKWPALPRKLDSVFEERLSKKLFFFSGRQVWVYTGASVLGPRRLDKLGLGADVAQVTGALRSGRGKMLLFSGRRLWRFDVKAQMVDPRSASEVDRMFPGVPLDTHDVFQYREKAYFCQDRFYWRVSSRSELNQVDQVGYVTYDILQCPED

For one assay, the target named is T1, Interstitial collagenase (Homo sapiens, UniProt P03956).
T1 sequence (P03956 whole entry): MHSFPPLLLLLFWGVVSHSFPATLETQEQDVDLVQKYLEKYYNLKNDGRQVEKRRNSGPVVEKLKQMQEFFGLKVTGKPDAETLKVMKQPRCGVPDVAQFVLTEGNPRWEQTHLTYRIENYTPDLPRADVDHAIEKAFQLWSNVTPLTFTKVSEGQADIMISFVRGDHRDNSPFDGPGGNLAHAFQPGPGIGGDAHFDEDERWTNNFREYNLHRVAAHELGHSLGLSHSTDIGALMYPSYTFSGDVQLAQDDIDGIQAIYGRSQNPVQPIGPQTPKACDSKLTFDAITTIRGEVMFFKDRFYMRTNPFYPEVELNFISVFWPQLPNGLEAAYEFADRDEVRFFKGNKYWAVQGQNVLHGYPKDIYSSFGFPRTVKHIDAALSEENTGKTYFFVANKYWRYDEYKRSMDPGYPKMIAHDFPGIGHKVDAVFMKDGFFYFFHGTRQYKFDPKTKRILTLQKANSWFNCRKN
Nature of the assay: Inhibition of MMP-1 (unknown origin).

The target in a further assay is Collagenase 3 (Homo sapiens, UniProt P45452).
Assay [1] addresses Matrix metalloproteinase-9 (Homo sapiens, UniProt P14780). In words: Inhibition of MMP-9 (unknown origin).

SMILES strings stand for the structures.

`O=C(NO)C1(S(=O)(=O)c2ccc(Oc3ccc(Cl)cc3)cc2)CCOCC1`: the inhibitory constant (Ki) on Interstitial collagenase came to 590 nM; on Collagenase 3, 0.52 nM. The molecule `CC(=O)Nc1ccc(Oc2ccc(S(=O)(=O)CC3CS3)cc2)cc1` (stereo not drawn) registered an inhibition constant (Ki) in assay [1] of 34000 nM.

One may read the Ki as the equilibrium dissociation constant of an inhibitor or competing ligand from its target.
